Laboratory results reported in paper PMC7367873, “Dissecting the sequence determinants for dephosphorylation by the catalytic subunits of phosphatases PP1 and PP2A” (Nature Communications, 2020).

How the values were obtained:
[1] = system: GFP-14-3-3β; experiment: GFP-14-3-3β co-IP with LC-MS/MS, untreated GFP-14-3-3β versus GFP control (14-3-3 interactome); format: binding, human; conditions: GFP-14-3-3β co-IP LC-MS/MS; untreated vs GFP; student's t-test; label-free quantification, 3 replicates each
Protocol: (§1) HeLa Kyoto cells expressing transiently transfected pEGFP(C1)-14-3-3β or pEGFP(C1) control plasmid, were incubated with 20 nM Calyculin A (# 9902 S, Cell Signaling Technology) for 12 min. Cells were washed twice on ice with cold PBS and after addition of 500 µL lysis buffer (100 mM NaCl, 10 mM Tris, 0.1% IGEPAL, 1 mM EDTA, 1 mM EGTA, 20 nM Calyculin A, 1x cOmplete Mini protease inhibitor cocktail (Sigma), 1 mM DTT, 1 mM MnCl2) cells were scraped from plates, lysed by 10 pushes through an injection needle (21 G, BD) and the insoluble fraction was pelleted by centrifugation (10 min, 10^4 rcf, 4 °C). Supernatants were then subjected to incubation with 1 µM recombinant phosphatase or buffer for 1 h at 30 °C. […]
(§2) The samples were analyzed by LC-MS/MS on a Dionex Ultimate 3000 nano-HPLC coupled online to a Fusion Lumos Tribrid mass spectrometer (Thermo Fisher Scientific). […] Full scan MS1 spectra were recorded in the Orbitrap from 360 to 1300 m/z at a resolution of 60k (automatic gain control (AGC) target value of 4e5 charges, maximum injection time (maxIT) of 50 ms). Up to 20 peptide precursors were isolated (isolation window, 1.7 m/z; maximum injection time, 25 ms; and AGC value, 1e5), fragmented by high-energy collision-induced dissociation (HCD) using 30% normalized collision energy (NCE), and analyzed at a resolution of 15k in the Orbitrap. […]

[2] = system: GFP-14-3-3β and its binding proteins; experiment: GFP-14-3-3β co-IP with LC-MS/MS label-free quantification, untreated versus PP1c-treated; design: species or system human; conditions: GFP-14-3-3β co-IP LC-MS/MS; PP1 vs untreated; student's t-test; label-free quantification, 3 replicates each
Protocol: as §1, §2

Difference (log2), PP1 vs untreated [2]: -0.4973 log2
B1: NUP93 (protein, UniProt Q8N1F7 1-819, looked up)
Nuclear pore complex protein …: MDTEGFGELLQQAEQLAAETEGISELPHVERNLQEIQQAGERLRSRTLTRTSQETADVKASVLLGSRGLDISHISQRLESLSAATTFEPLEPVKDTDIQGFLKNEKDNALLSAIEESRKRTFGMAEEYHRESMLVEWEQVKQRILHTLLASGEDALDFTQESEPSYISDVGPPGRSSLDNIEMAYARQIYIYNEKIVNGHLQPNLVDLCASVAELDDKSISDMWTMVKQMTDVLLTPATDALKNRSSVEVRMEFVRQALAYLEQSYKNYTLVTVFGNLHQAQLGGVPGTYQLVRSFLNIKLPAPLPGLQDGEVEGHPVWALIYYCMRCGDLLAASQVVNRAQHQLGEFKTWFQEYMNSKDRRLSPATENKLRLHYRRALRNNTDPYKRAVYCIIGRCDVTDNQSEVADKTEDYLWLKLNQVCFDDDGTSSPQDRLTLSQFQKQLLEDYGESHFTVNQQPFLYFQVLFLTAQFEAAVAFLFRMERLRCHAVHVALVLFELKLLLKSSGQSAQLLSHEPGDPPCLRRLNFVRLLMLYTRKFESTDPREALQYFYFLRDEKDSQGENMFLRCVSELVIESREFDMILGKLENDGSRKPGVIDKFTSDTKPIINKVASVAENKGLFEEAAKLYDLAKNADKVLELMNKLLSPVVPQISAPQSNKERLKNMALSIAERYRAQGISANKFVDSTFYLLLDLITFFDEYHSGHIDRAFDIIERLKLVPLNQESVEERVAAFRNFSDEIRHNLSEVLLATMNILFTQFKRLKGTSPSSSSRPQRVIEDRDSQLRSQARTLITFAGMIPYRTSGDTNARLVQMEVLMN
Difference (log2), untreated vs GFP [1]: 0.79 log2
